Measurements: PubChem BioAssay AID504692 (The Scripps Research Institute Molecular Screening Center, 2011)
Only a part is listed here, and it is no random draw. Calls of active or inactive are those of the source. No stated cut-off is given here; in the data, active means activation mostly above about 9.5% (no sharp cut-off); inactive means mostly below about 7.6%.

Chains of the proteins cited; added tags and fusions are not shown.
UniProt P47898, whole entry, looked up: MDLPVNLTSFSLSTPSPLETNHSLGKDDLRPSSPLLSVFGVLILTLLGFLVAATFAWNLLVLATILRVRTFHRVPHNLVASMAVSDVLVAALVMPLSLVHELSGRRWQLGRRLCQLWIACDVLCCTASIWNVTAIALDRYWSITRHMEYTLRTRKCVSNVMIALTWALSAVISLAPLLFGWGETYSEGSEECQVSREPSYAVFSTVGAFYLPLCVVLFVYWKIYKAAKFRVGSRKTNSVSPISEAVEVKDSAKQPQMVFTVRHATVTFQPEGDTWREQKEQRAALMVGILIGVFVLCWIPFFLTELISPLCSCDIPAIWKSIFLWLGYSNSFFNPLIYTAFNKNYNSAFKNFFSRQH

What follows are compounds tested against 5-hydroxytryptamine receptor 5A (Homo sapiens) (UniProt P47898) (assay: activation of human 5-HT5A receptor – cell-based, luminescence, full-deck HTS, counter-screen for OPRM1-OPRD1 heterodimer agonist project, primary screen (AID 504692;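 further: 0% = cells with vehicle only and 100% = reference agonist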)). Settings: HTR5A agonist assay, at 9.3 µM, active compounds read high.

SMILES	activation
O=C(Cn1cnc2c(OCc3ccccc3)ncnc21)NCCc1c[nH]c2ccccc12	inactive: 2.2%
CN(C)CCCNC(=S)N1CCn2c(nc3ccccc32)C1	inactive: 10.4%
Fc1ccc(Cn2nnnc2CN2CCC(n3nnc4cc(C(F)(F)F)ccc43)CC2)cc1	inactive: -1.58%
CC1(CBr)Cn2c(nc3ccccc3c2=O)S1 (stereo not given)	inactive: -2.19%
O=C(Nc1nc2ccccc2n1CCN1CCOCC1)c1ccc(COc2ccccc2Br)o1	inactive: -0.18%
CCC(=O)Nc1ccc2c(c1)nc1n2CCN(C2CCCCC2)C1	inactive: -2.91%
CN(C(=O)Cc1ccc(Cl)c(Cl)c1)[C@@H]1CCCC[C@H]1N1CCCC1	inactive: 1.73%
COc1ccc(CCNC(=O)CCCCCNC(=O)N2CCn3c2nc2ccccc23)cc1OC	inactive: -2.93%
CC(C)/C=N\N=C(\N)N[N+](=O)[O-]	inactive: -8.02%
O=C(Cn1c(COc2ccc(Cl)cc2)nc2ccccc21)NCC(F)(F)F	inactive: -7.12%
CCN(CC)CCn1c(NC(=O)c2ccc(C)cc2)nc2ccccc21	inactive: -4.84%
C[C@H](O)[C@@H]1C(=O)N2CCc3ccc(-c4cccc(F)c4)cc3[C@@H]2C[C@@H]1N(C)C(=O)C(C)(C)C	inactive: -3.52%
O=C(Cn1c(CO)nc2ccccc21)NCc1ccc2c(c1)OCO2	inactive: 2.65%
COC(=O)[C@H](CCSC)NC(=O)Cn1cnc2c(OCc3ccccc3)ncnc21	inactive: -0.42%
Cc1cccc(N2CCN(C(=O)Cn3cnc4c3c(=O)n(C)c(=O)n4C)CC2)c1C	inactive: 0.26%
CCOC(=O)c1ccc(NC(=O)Cn2cnc3cc(C)c(C)cc32)cc1	inactive: 4.83%
CCOc1ccc(C(=O)N2CCn3c2nc2ccccc23)cc1	inactive: 2.15%
Cc1ccc(-c2nc(N(C)C3CCN(C)CC3)c3ccccc3n2)cc1	inactive: 0.35%
CCOC(=O)Cc1csc(NC(=O)Cn2cnc3c2c(=O)n(C)c(=O)n3C)n1	inactive: -0.9%
CNC(=O)Cn1c(=O)n(C)c2ccccc21	inactive: -4.15%
CC1c2nc3ccccc3n2C(CC(=O)NC2CC2)C(=O)N1Cc1ccccc1 (stereo not given)	inactive: 2.41%
CSc1nc(N)nc2c1ncn2CC(=O)NCCNc1ccc([N+](=O)[O-])cn1	inactive: 0.41%
CCOP(=O)(Nc1ccc(C)cn1)OCC	inactive: -0.83%

SMILES	activation
CCN1C(=O)CC(N2CCC(Nc3ccc(F)cc3)CC2)C1=O (stereo not given)	inactive: 0.05%
CC(c1ccccc1)N1CCn2c(nc3cc(NC(=O)NC4CCCCC4)ccc32)C1 (stereo not given)	inactive: 1.46%
CC(C)NC(=O)CSc1nc2ccccc2n1CC(=O)N1CCc2ccccc21	inactive: -0.55%
CN(C)C1(c2nnnn2CCOC(=O)Nc2ccc(Cl)cc2)CCCCC1	inactive: 9.89%
CC(C)C[C@H](NC(=O)N1CCn2c1nc1ccccc12)C(=O)N[C@@H](C(=O)O)c1ccccc1	inactive: 3.1%
CCC1=CC2Cc3nc4ccc(Cl)cc4c(N)c3C(C1)C2 (stereo not given)	inactive: -0.06%
COc1cccc(CNC(=O)CCCCCNC(=O)N2CCn3c2nc2ccccc23)c1	inactive: 0.44%
O=P1(Nc2ccccn2)COc2ccccc2OC1	inactive: -1.81%
Cn1c(=O)c2c(ncn2CC(=O)N2CCCc3ccccc32)n(C)c1=O	inactive: -5.24%
O=C(Cn1c(-c2cscn2)nc2ccccc21)Nc1ccc2ccccc2c1	inactive: 1.8%
CC(NC(=O)Cn1c(NCCO)nc2ccccc21)C1CC2CCC1C2 (stereo not given)	inactive: -3.72%
O=C(Cn1c(NCCO)nc2ccccc21)NCCc1ccc(F)cc1	inactive: -5.49%
CCN(CC)CCn1c(NCc2cccc(OC)c2)nc2ccccc21	inactive: 3.41%
CC(C)(C)NC(=O)Cn1c(=O)n(CC(=O)NC(C)(C)C)c2ccccc21	inactive: -3.54%
CCOP(=O)(NC(=NC(C)c1ccccc1)NC(C)c1ccccc1)OCC (stereo not given)	inactive: 8.08%
CCCCNC(=O)CC1C(=O)N(Cc2ccccc2)C(C)c2nc3ccccc3n21 (stereo not given)	inactive: 0.81%
O=C(Cn1c(SCc2ccccc2)nc2ccccc21)N1CCOCC1	inactive: -2.67%
Cn1c(=O)c2c(ncn2CC(=O)N2CCN(c3ccc(F)cc3)CC2)n(C)c1=O	inactive: -0.91%
COc1ccc(/C=N/NC(=O)Cn2c(Cc3ccc(OC)c(OC)c3)nc3ccccc32)cc1OC	inactive: -2.26%
Clc1n[nH]nc1-c1nn[nH][15n]1	inactive: -5.03%
NNC(=O)Cn1c(-c2nonc2N)nc2ccccc21	inactive: 4.44%
Cc1ccc(CSc2nc3ccncc3n2CC(=O)Nc2cc(C)cc(C)c2)cc1	inactive: 7.63%
